Tested on: 4T1-luciferase tumor
Experiment: 4T1-luciferase tumor model: IR with compound 1, cGAMP and/or anti-CTLA-4; tumor volume and survival
Assay type: in vivo, Balb/c mice
Details: 20 Gy IR + compound 1 in addition to cGAMP, intratumoral

Compound COc1cc2ncnc(N3CCC(CCP(=O)(O)O)CC3)c2cc1OC [compound 1] has a cure rate of 10%.
